# Assay results reported in PubChem BioAssay AID504707 (The Scripps Research Institute Molecular Screening Center, 2011).
# The entries are a selection whose mix differs from that of the whole data set. Some results for these compounds are left out of this collection, so the calls shown say nothing about other tests. The source made the active and inactive calls.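 Rule for the calls: active = percent activation above the mean of all tested compounds plus 3 SD (cut at about 19% in these data); inactive = the rest.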
# Target: cAMP-dependent protein kinase type I-alpha regulatory subunit (Bos taurus) + cAMP-dependent protein kinase catalytic subunit beta (Mus musculus) (UniProt P00514+P68181)
# Assay: activators of PKA-R1A holoenzyme, primary screen, biochemical, fluorescence polarization, Cy5-IP20, bovine R1A, mouse PKAc (AID 504707);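 note: higher means more PKAc released from R1A so a rise in polarization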
# Conditions: PKA-R1A dissociation, at 11.4 µM, active compounds read high, scaled: DMSO 0%, 113 µM cGMP 100%
row,Structure (SMILES),activation
1,Cc1ccccc1C(=O)NCC1(N2CCCCC2)CCCCC1,inactive: 0.65%
2,CN(C)C1CCCC1OC(=O)C(O)(c1ccccc1)c1ccccc1 (stereo unspecified),inactive: -0.37%
3,CN(C)c1ccc(C(=O)NCC2(N(C)C)CCCCC2)cc1,inactive: 7.95%
4,C=CCN1CCN(CCOC(=O)C(O)(c2ccccc2)c2ccccc2)CC1,inactive: -4.22%
5,O=C(NCC1(N2CCCCC2)CCCCC1)c1cc(F)c(F)cc1Cl,inactive: 2.7%
6,COc1ccc(C(=O)NCC2(N(C)C)CCCCC2)cc1,inactive: 11.6%
7,Cc1cc(C(=O)NCC2(N3CCCCC3)CCCCC2)ccc1[N+](=O)[O-],inactive: 0.16%
8,CCN1CCCC(OC(=O)C2(O)c3ccccc3C=Cc3ccccc32)C1 (stereo unspecified),inactive: -2.66%
9,O=C(NCC1(N2CCCCC2)CCCCC1)c1cccc(Br)c1,inactive: 2.91%
10,O=C(NCC1(N2CCCCC2)CCCCC1)c1cc([N+](=O)[O-])ccc1Cl,inactive: 8.15%
11,CN1[C@@H]2CC[C@H]1CC(OC(=O)C(O)(c1ccccc1)c1ccccc1)C2 (stereo partly specified),inactive: 1.11%
12,CCN(CC)CC(C)C(C)OC(=O)C(O)(c1ccccc1)c1ccccc1 (stereo unspecified),inactive: 5.32%
13,COc1cc(SC)ccc1C(=O)NCC1(N(C)C)CCCCC1,inactive: -4.94%
14,CC(C)N1C(=O)CC2(CCN(CCOC(=O)C(O)(c3ccccc3)c3ccccc3)CC2)C1=O,inactive: 1.97%
15,Cc1ccc(C(=O)NCC2(N3CCCCC3)CCCCC2)cc1,inactive: 2.09%
16,O=C(OC1CN2CCC1CC2)C(CO)(c1ccccc1)c1ccccc1 (stereo unspecified),inactive: -0.53%
17,C=C(C)C#CC(O)(C(=O)OC1CCN(C)CC1)c1ccccc1 (stereo unspecified),inactive: 6.06%
18,COc1ccc(Br)c(C(=O)NCC2(N3CCCCC3)CCCCC2)c1,inactive: -6.37%
19,CC(C)Oc1ccc(C(=O)NCC2(N(C)C)CCCCC2)cc1,inactive: -3.9%
20,O=C(OCCN1CCCC1)C(O)(c1ccccc1)c1ccccc1,inactive: -7.38%
21,CN(C)c1cccc(C(=O)NCC2(N(C)C)CCCCC2)c1,inactive: -1.37%
22,CN(C)C1(CNC(=O)c2ccc(Br)cc2)CCCCC1,inactive: -6.42%
23,COc1cc(C(=O)NCC2(N(C)C)CCCCC2)c([N+](=O)[O-])cc1OC,inactive: -7.38%
24,COc1cccc(C(=O)NCC2(N3CCCCC3)CCCCC2)c1,inactive: 4.23%
25,COc1ccc(Cl)cc1C(=O)NCC1(N(C)C)CCCCC1,inactive: -1.32%
26,O=C(NCC1(N2CCCCC2)CCCCC1)c1cccc(Cl)c1,inactive: -4.43%
